Test results reported in PubChem BioAssay AID743279 (National Center for Advancing Translational Sciences (NCATS), 2014).
The list shows a part of the results, in another mix than the full data. Some tests of the compounds listed are not included; inactive here does not mean inactive elsewhere. Records with an inconclusive call do not appear. Calls of active or inactive are those of the source. Cut-off read from the data, not from the text of the source: active = activity change below about -50%; inconclusive = mostly about -30% to -49%; inactive = weaker than that.

assay: qHTS for Inhibitors of Inflammasome Signaling: IL-1-beta AlphaLISA Primary Screen; details: THP-1 LPS/ATP IL-1B secretion, 16 h; at 57.5 µM, hits give low values
Excerpt: Inflammasomes are a set of intracellular multi-protein complexes that enable autocatalytic activation of inflammatory caspases and drive the innate immune response to counter harmful agents. […] A qHTS assay, based on AlphaLISA technology, was developed to screen the Molecular Libraries Small Molecule Repository (MLSMR) to look for novel inflammasome inhibitors. The assay detects IL-1B using AlphaLISA anti-IL-1B acceptor and donor beads. A decreased emission signal, indicating reduced IL-1B secretion, is the desired outcome for this assay. NIH Chemical Genomics Center [NCGC] NIH Molecular Libraries Probe Centers Network [MLPCN] MLPCN Grant: MH095513 Assay Provider: Shyam Biswal Ph.D., Johns Hopkins University Immunity. 2012 Jul 27;37(1):85-95. PMID: 22819042 [2] Curr Pharm Des. 2012;18(16):2320-8. PMID: 22390695
Three microliters containing 3000 THP-1 cells were dispensed into the wells of solid, white, tissue culture treated Greiner 1,536-well plates. Library compounds and positive control, Glyburide, were pin-transferred (23 nL) by a Kalypsys pin-tool equipped with a 1,536-pin array, resulting in final compound concentration ranges of 2.5 nM to 57.5 uM. After 1 hr of cell culture incubation (37 °C, 5% CO2), 1 microL of 1 microg/mL lipopolysaccharide (250 ng/mL, final) and 5 mM ATP (1.25 mM, final) were added to stimulate the cells. After 16 hr of cell culture incubation with the compounds, 1.5 uL of anti-IL-1B acceptor beads (6 ug/mL, final) and biotinylated antibody (0.6 nM, final) were added to the plate, followed by a 1 hr incubation at ambient temperature. To detect the secreted IL-1B, 1.5 uL of AlphaLISA SA-Donor beads (24 ug/mL, final) were added, followed by 30 min of incubation in the dark at ambient temperature. The AlphaLISA signal was read by a PerkinElmer EnVision plate reader with an ultrasensitive luminescence detector and 1536 Plate HTS AlphaScreen aperture (excitation of 680nm and emission of 615nm).
% is set by controls: 0 for no effect and ±100 for the full control effect.

Row | SMILES | activity change
1 | COc1cc(C(=O)NCC2(N(C)C)CCCCC2)c([N+](=O)[O-])cc1OC | inactive: 4.77%
2 | CN(C)C1(CNC(=O)c2ccc(Br)cc2)CCCCC1 | inactive: -9.49%
3 | O=C(NCC1(N2CCCCC2)CCCCC1)c1cccc(Cl)c1 | inactive: -8.09%
4 | COc1cccc(C(=O)NCC2(N3CCCCC3)CCCCC2)c1 | inactive: 11%
5 | COc1ccc(Cl)cc1C(=O)NCC1(N(C)C)CCCCC1 | inactive: -20.9%
6 | O=C(OC1CN2CCC1CC2)C(CO)(c1ccccc1)c1ccccc1 (stereo unspecified) | inactive: -15.5%
7 | CN(C)c1cccc(C(=O)NCC2(N(C)C)CCCCC2)c1 | inactive: 7.66%
8 | CC(C)Oc1ccc(C(=O)NCC2(N(C)C)CCCCC2)cc1 | inactive: 16.1%
9 | O=C(OCCN1CCCC1)C(O)(c1ccccc1)c1ccccc1 | inactive: -15.9%
10 | COc1ccc(Br)c(C(=O)NCC2(N3CCCCC3)CCCCC2)c1 | inactive: 21.8%
11 | C=C(C)C#CC(O)(C(=O)OC1CCN(C)CC1)c1ccccc1 (stereo unspecified) | inactive: -12.5%
12 | CN1[C@@H]2CC[C@H]1CC(OC(=O)C(O)(c1ccccc1)c1ccccc1)C2 (stereo partly specified) | inactive: -11.8%
13 | O=C(NCC1(N2CCCCC2)CCCCC1)c1cc([N+](=O)[O-])ccc1Cl | active
14 | Cc1ccc(C(=O)NCC2(N3CCCCC3)CCCCC2)cc1 | inactive: -6.33%
15 | CC(C)N1C(=O)CC2(CCN(CCOC(=O)C(O)(c3ccccc3)c3ccccc3)CC2)C1=O | inactive: 10.6%
16 | CCN(CC)CC(C)C(C)OC(=O)C(O)(c1ccccc1)c1ccccc1 (stereo unspecified) | inactive: -21.3%
17 | COc1cc(SC)ccc1C(=O)NCC1(N(C)C)CCCCC1 | inactive: 6.14%
18 | Cc1ccccc1C(=O)NCC1(N2CCCCC2)CCCCC1 | inactive: -3.88%
19 | CN(C)c1ccc(C(=O)NCC2(N(C)C)CCCCC2)cc1 | inactive: -7.22%
20 | CN(C)C1CCCC1OC(=O)C(O)(c1ccccc1)c1ccccc1 (stereo unspecified) | inactive: -15.7%
21 | CCN1CCCC(OC(=O)C2(O)c3ccccc3C=Cc3ccccc32)C1 (stereo unspecified) | inactive: -28.6%
22 | Cc1cc(C(=O)NCC2(N3CCCCC3)CCCCC2)ccc1[N+](=O)[O-] | inactive: -3.9%
23 | O=C(NCC1(N2CCCCC2)CCCCC1)c1cccc(Br)c1 | inactive: 7.03%
24 | COc1ccc(C(=O)NCC2(N(C)C)CCCCC2)cc1 | inactive: -7.01%
25 | C=CCN1CCN(CCOC(=O)C(O)(c2ccccc2)c2ccccc2)CC1 | inactive: 13.3%
26 | O=C(NCC1(N2CCCCC2)CCCCC1)c1cc(F)c(F)cc1Cl | inactive: -17.9%
